From paper PMC6553708 (PLoS ONE, 2019)

Sequences of proteins named here, by UniProt entry; tags and fusion partners are left off. A change or cut given only in a name is not applied to a line headed by its entry.
UniProt P41145: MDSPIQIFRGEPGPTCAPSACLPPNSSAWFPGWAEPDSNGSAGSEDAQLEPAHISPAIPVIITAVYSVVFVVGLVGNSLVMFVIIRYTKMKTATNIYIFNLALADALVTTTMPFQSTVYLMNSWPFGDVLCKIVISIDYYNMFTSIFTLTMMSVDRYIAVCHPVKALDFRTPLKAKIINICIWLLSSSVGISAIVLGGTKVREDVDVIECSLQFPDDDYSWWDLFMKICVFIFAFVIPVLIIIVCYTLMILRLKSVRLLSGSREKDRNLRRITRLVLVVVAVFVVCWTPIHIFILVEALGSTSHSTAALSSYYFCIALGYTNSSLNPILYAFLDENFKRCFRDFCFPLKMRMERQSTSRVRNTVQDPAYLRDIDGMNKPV
UniProt P21554, whole entry: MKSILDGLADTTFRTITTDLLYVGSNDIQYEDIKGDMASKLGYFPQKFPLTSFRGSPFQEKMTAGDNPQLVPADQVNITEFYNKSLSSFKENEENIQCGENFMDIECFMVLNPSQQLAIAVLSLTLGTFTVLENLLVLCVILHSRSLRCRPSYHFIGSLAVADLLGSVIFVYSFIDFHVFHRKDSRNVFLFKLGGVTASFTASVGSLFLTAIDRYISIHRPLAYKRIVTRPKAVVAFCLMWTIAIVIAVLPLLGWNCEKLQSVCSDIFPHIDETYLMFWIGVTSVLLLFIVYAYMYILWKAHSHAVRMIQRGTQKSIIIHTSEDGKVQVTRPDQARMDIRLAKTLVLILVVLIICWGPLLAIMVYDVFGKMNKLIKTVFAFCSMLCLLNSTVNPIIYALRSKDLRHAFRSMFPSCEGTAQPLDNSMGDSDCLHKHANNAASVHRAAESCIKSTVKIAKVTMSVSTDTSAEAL
UniProt P35372, whole entry: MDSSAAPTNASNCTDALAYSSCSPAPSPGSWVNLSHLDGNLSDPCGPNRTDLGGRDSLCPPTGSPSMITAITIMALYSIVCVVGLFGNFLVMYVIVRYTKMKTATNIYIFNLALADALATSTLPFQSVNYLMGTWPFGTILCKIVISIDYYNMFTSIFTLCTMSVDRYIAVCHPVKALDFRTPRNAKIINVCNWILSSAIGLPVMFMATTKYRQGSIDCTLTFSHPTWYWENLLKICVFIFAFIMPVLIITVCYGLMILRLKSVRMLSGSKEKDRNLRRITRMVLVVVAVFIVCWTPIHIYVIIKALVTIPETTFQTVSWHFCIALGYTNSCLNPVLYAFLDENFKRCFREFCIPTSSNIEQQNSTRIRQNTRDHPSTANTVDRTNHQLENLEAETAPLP

Assays:
[1] = target: T1, Kappa Opioid Receptor (KOR) (Homo sapiens, UniProt P41145); assay: biochemical; conditions: KOR EC50 (35S-GTPγS)
[2] = target: T1, Kappa Opioid Receptor (KOR); assay: biochemical; type: binding; set-up: membranes used
[3] = target: T2, Cannabinoid Receptor Type 1 (CB1) (Homo sapiens, UniProt P21554)
Mu Opioid Receptor (MOR) = Mu Opioid Receptor (MOR) (Homo sapiens, UniProt P35372); assay: biochemical; conditions: read-out: MOR EMAX (35S-GTPγS)
[4] = target: T2, Cannabinoid Receptor Type 1 (CB1); assay: biochemical
MOR = conditions: ref [13]–[15]; cited from earlier work

For `COc1ccc2c3c1O[C@H]1C(=O)CC[C@@]4(O)[C@@H](C2)N(C)CC[C@]314` [Oxycodone], which EC50 [1] is on record?
Its EC50 is > 2000 nM.

And the Ki [2]?
Its Ki is > 2000 nM.

With `CN1CC[C@]23c4c5ccc(O)c4O[C@H]2C(=O)CC[C@H]3[C@H]1C5` [Hydromorphone] as the compound, how does the “Potential new finding: activity at CB1 (in words)” value [3] read?
The value was “CB1 partial agonist”.

And the Emax (Mu Opioid Receptor (MOR))?
Its Emax is 94 ± 1%.

And the EC50 [4]?
The EC50 was > 2000 nM.

And the Emax at 10 µM ([4]; read-out: CB1 EMAX, in parentheses: maximum efficacy at 10 μM)?
Its Emax at 10 µM is > 41.5%.

With `CN1CC[C@]23c4c5ccc(O)c4O[C@H]2[C@@H](O)C=C[C@H]3[C@H]1C5` [Morphine] as the compound, how does the “operational efficacy τ in vitro” value (MOR) read?
The value was 3.3–5.2 and 5.

Several values for one entry are separate records, joined by “and”; a condition that tells them apart may be missing. Identical values can stand only once.
